Experimental data: ChEMBL document CHEMBL4316596, “Antimicrobial Peptides with High Proteolytic Resistance for Combating Gram-Negative Bacteria” (J Med Chem, 2019)
pIC50: −log10 of the molar value.

Test: Cytotoxicity against IPECJ2 cells assessed as cell death after 18 to 24 hrs by MTT assay
Type: cell-based
Conditions: Sus scrofa, IPEC-J2

Structure (SMILES): CC[C@H](C)[C@H](NC(=O)CN)C(=O)NCC(=O)N[C@@H](C)C(=O)N[C@H](C(=O)N[C@@H](CC(C)C)C(=O)N[C@@H](CCCCN)C(=O)N[C@H](C(=O)N[C@@H](CC(C)C)C(=O)N[C@H](C(=O)N[C@H](C(=O)NCC(=O)N[C@@H](CC(C)C)C(=O)N1CCC[C@H]1C(=O)N[C@@H](C)C(=O)N[C@@H](CC(C)C)C(=O)N[C@H](C(=O)N[C@@H](CO)C(=O)N[C@@H](Cc1c[nH]c2ccccc12)C(=O)N[C@H](C(=O)N[C@@H](CCCCN)C(=O)N[C@@H](CCCNC(=N)N)C(=O)N[C@@H](CCCCN)C(=O)N[C@@H](CCCNC(=N)N)C(=O)N[C@@H](CCC(N)=O)C(=O)N[C@@H](CCC(N)=O)C(N)=O)[C@@H](C)CC)[C@@H](C)CC)[C@@H](C)O)[C@@H](C)O)C(C)C)C(C)C [MELITTIN]
- pIC50: 5.54
